Results from ChEMBL document CHEMBL5131455, “A kinase inhibitor which specifically targets the ABL myristate pocket (STAMP), but unlike asciminib crosses the blood-brain barrier” (Bioorg Med Chem Lett, 2022).

Test: in vivo
Conditions: rat, brain and blood, po, 30 mg/kg

Structure (SMILES): O=C(Nc1ccc(OC(F)(F)Cl)cc1)c1cnc(N2CC[C@@H](O)C2)c(-c2ccn[nH]2)c1 [ASCIMINIB]
- Kp: 100
